Assay: in vivo
Conditions: mouse, po

For `CC1=C(CC(=O)O)c2cc(F)ccc2/C1=C\c1ccc([S+](C)[O-])cc1` (stereo not shown) [Sulindac], the LD50 was 507 mg/kg.
